Assay results: PubChem BioAssay (NCI)
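Briefly, cells in 96-well plates were exposed to five compound concentrations for 48 h, and endpoints were estimated by linear interpolation. Here, GI50 denotes the concentration required for 50% inhibition of growth. TGI denotes the concentration required for complete inhibition of growth.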

Tests used:
Test in all cases: NCI anticancer screen, dose series, 48 h
NCI-H226 lung = test system: NCI-H226 lung
SF-295 CNS = test system: SF-295 CNS
SNB-75 CNS = test system: SNB-75 CNS
LOX IMVI melanoma = test system: LOX IMVI melanoma
UACC-257 melanoma = test system: UACC-257 melanoma
OVCAR-8 ovarian = test system: OVCAR-8 ovarian
UACC-62 melanoma = test system: UACC-62 melanoma
OVCAR-3 ovarian = test system: OVCAR-3 ovarian
SF-539 CNS = test system: SF-539 CNS
M14 melanoma = test system: M14 melanoma
SK-MEL-28 melanoma = test system: SK-MEL-28 melanoma
SN12C renal = test system: SN12C renal
SNB-78 CNS = test system: SNB-78 CNS
SNB-19 CNS = test system: SNB-19 CNS
HT29 colon = test system: HT29 colon
NCI-H23 lung = test system: NCI-H23 lung
TK-10 renal = test system: TK-10 renal
HCC-2998 colon = test system: HCC-2998 colon
SK-MEL-2 melanoma = test system: SK-MEL-2 melanoma
SK-MEL-5 melanoma = test system: SK-MEL-5 melanoma
DLD-1 colon = test system: DLD-1 colon
SW-620 colon = test system: SW-620 colon
A498 renal = test system: A498 renal
MALME-3M melanoma = test system: MALME-3M melanoma
A549 NSCLC = test system: A549 NSCLC
CCRF-CEM leukemia = test system: CCRF-CEM leukemia
K-562 leukemia = test system: K-562 leukemia
KM20L2 colon = test system: KM20L2 colon
KM12 colon = test system: KM12 colon
DMS 273 small cell lung = test system: DMS 273 small cell lung
OVCAR-5 ovarian = test system: OVCAR-5 ovarian
CAKI-1 renal = test system: CAKI-1 renal
MOLT-4 leukemia = test system: MOLT-4 leukemia
HOP-18 NSCLC = test system: HOP-18 NSCLC
M19-MEL melanoma = test system: M19-MEL melanoma
HCT-116 colon = test system: HCT-116 colon
RXF 393 renal = test system: RXF 393 renal
NCI-H322M lung = test system: NCI-H322M lung
COLO 205 colon = test system: COLO 205 colon
HOP-92 NSCLC = test system: HOP-92 NSCLC
NCI-H460 lung = test system: NCI-H460 lung
HCT-15 colon = test system: HCT-15 colon
HL-60(TB) leukemia = test system: HL-60(TB) leukemia
SF-268 CNS = test system: SF-268 CNS
ACHN renal = test system: ACHN renal
OVCAR-4 ovarian = test system: OVCAR-4 ovarian
EKVX NSCLC = test system: EKVX NSCLC
SK-OV-3 ovarian = test system: SK-OV-3 ovarian
NCI-H522 lung = test system: NCI-H522 lung
UO-31 renal = test system: UO-31 renal
LXFL 529 NSCLC = test system: LXFL 529 NSCLC
786-0 renal = test system: 786-0 renal
DMS 114 small cell lung = test system: DMS 114 small cell lung
U251 CNS = test system: U251 CNS
RPMI-8226 leukemia = test system: RPMI-8226 leukemia
IGROV1 ovarian = test system: IGROV1 ovarian

SMILES: O=[N+]([O-])N1CCCS1(=O)=O
- GI50 (NCI-H226 lung): 94 µM
- TGI (NCI-H226 lung): > 100 µM
- GI50 (SF-295 CNS): > 100 µM
- TGI (SF-295 CNS): > 100 µM
- GI50 (SNB-75 CNS): > 100 µM
- TGI (SNB-75 CNS): > 100 µM
- GI50 (LOX IMVI melanoma): > 100 µM
- TGI (LOX IMVI melanoma): > 100 µM
- GI50 (UACC-257 melanoma): > 100 µM
- TGI (UACC-257 melanoma): > 100 µM
- GI50 (OVCAR-8 ovarian): > 100 µM
- TGI (OVCAR-8 ovarian): > 100 µM
- GI50 (UACC-62 melanoma): > 100 µM
- TGI (UACC-62 melanoma): > 100 µM
- GI50 (OVCAR-3 ovarian): > 100 µM
- TGI (OVCAR-3 ovarian): > 100 µM
- GI50 (SF-539 CNS): > 100 µM
- TGI (SF-539 CNS): > 100 µM
- GI50 (M14 melanoma): > 100 µM
- TGI (M14 melanoma): > 100 µM
- GI50 (SK-MEL-28 melanoma): > 100 µM
- TGI (SK-MEL-28 melanoma): > 100 µM
- GI50 (SN12C renal): > 100 µM
- TGI (SN12C renal): > 100 µM
- GI50 (SNB-78 CNS): > 100 µM
- TGI (SNB-78 CNS): > 100 µM
- GI50 (SNB-19 CNS): > 100 µM
- TGI (SNB-19 CNS): > 100 µM
- GI50 (HT29 colon): > 100 µM
- TGI (HT29 colon): > 100 µM
- GI50 (NCI-H23 lung): > 100 µM
- TGI (NCI-H23 lung): > 100 µM
- GI50 (TK-10 renal): > 100 µM
- TGI (TK-10 renal): > 100 µM
- GI50 (HCC-2998 colon): > 100 µM
- TGI (HCC-2998 colon): > 100 µM
- GI50 (SK-MEL-2 melanoma): > 100 µM
- TGI (SK-MEL-2 melanoma): > 100 µM
- GI50 (SK-MEL-5 melanoma): > 100 µM
- TGI (SK-MEL-5 melanoma): > 100 µM
- GI50 (DLD-1 colon): > 100 µM
- TGI (DLD-1 colon): > 100 µM
- GI50 (SW-620 colon): > 100 µM
- TGI (SW-620 colon): > 100 µM
- GI50 (A498 renal): > 100 µM
- TGI (A498 renal): > 100 µM
- GI50 (MALME-3M melanoma): > 100 µM
- TGI (MALME-3M melanoma): > 100 µM
- GI50 (A549 NSCLC): > 100 µM
- TGI (A549 NSCLC): > 100 µM
- GI50 (CCRF-CEM leukemia): > 100 µM
- TGI (CCRF-CEM leukemia): > 100 µM
- GI50 (K-562 leukemia): > 100 µM
- TGI (K-562 leukemia): > 100 µM
- GI50 (KM20L2 colon): > 100 µM
- TGI (KM20L2 colon): > 100 µM
- GI50 (KM12 colon): > 100 µM
- TGI (KM12 colon): > 100 µM
- GI50 (DMS 273 small cell lung): > 100 µM
- TGI (DMS 273 small cell lung): > 100 µM
- GI50 (OVCAR-5 ovarian): > 100 µM
- TGI (OVCAR-5 ovarian): > 100 µM
- GI50 (CAKI-1 renal): > 100 µM
- TGI (CAKI-1 renal): > 100 µM
- GI50 (MOLT-4 leukemia): > 100 µM
- TGI (MOLT-4 leukemia): > 100 µM
- GI50 (HOP-18 NSCLC): > 100 µM
- TGI (HOP-18 NSCLC): > 100 µM
- GI50 (M19-MEL melanoma): > 100 µM
- TGI (M19-MEL melanoma): > 100 µM
- GI50 (HCT-116 colon): > 100 µM
- TGI (HCT-116 colon): > 100 µM
- GI50 (RXF 393 renal): > 100 µM
- TGI (RXF 393 renal): > 100 µM
- GI50 (NCI-H322M lung): > 100 µM
- TGI (NCI-H322M lung): > 100 µM
- GI50 (COLO 205 colon): > 100 µM
- TGI (COLO 205 colon): > 100 µM
- GI50 (HOP-92 NSCLC): > 100 µM
- TGI (HOP-92 NSCLC): > 100 µM
- GI50 (NCI-H460 lung): > 100 µM
- TGI (NCI-H460 lung): > 100 µM
- GI50 (HCT-15 colon): > 100 µM
- TGI (HCT-15 colon): > 100 µM
- GI50 (HL-60(TB) leukemia): > 100 µM
- TGI (HL-60(TB) leukemia): > 100 µM
- GI50 (SF-268 CNS): > 100 µM
- TGI (SF-268 CNS): > 100 µM
- GI50 (ACHN renal): > 100 µM
- TGI (ACHN renal): > 100 µM
- GI50 (OVCAR-4 ovarian): > 100 µM
- TGI (OVCAR-4 ovarian): > 100 µM
- GI50 (EKVX NSCLC): > 100 µM
- TGI (EKVX NSCLC): > 100 µM
- GI50 (SK-OV-3 ovarian): > 100 µM
- TGI (SK-OV-3 ovarian): > 100 µM
- GI50 (NCI-H522 lung): > 100 µM
- TGI (NCI-H522 lung): > 100 µM
- GI50 (UO-31 renal): > 100 µM
- TGI (UO-31 renal): > 100 µM
- GI50 (LXFL 529 NSCLC): > 100 µM
- TGI (LXFL 529 NSCLC): > 100 µM
- GI50 (786-0 renal): > 100 µM
- TGI (786-0 renal): > 100 µM
- GI50 (DMS 114 small cell lung): > 100 µM
- TGI (DMS 114 small cell lung): > 100 µM
- GI50 (U251 CNS): > 100 µM
- TGI (U251 CNS): > 100 µM
- GI50 (RPMI-8226 leukemia): > 100 µM
- TGI (RPMI-8226 leukemia): > 100 µM
- GI50 (IGROV1 ovarian): > 100 µM
- TGI (IGROV1 ovarian): > 100 µM
